Data on one molecule can be found in US20060058383A1 (priority 2004, published 2006).

The series is described as follows: Animal studies, toxicity in mice. The following applies: 5 mg/kg, i.v. daily for 5 days.

`CCOC(=O)C(=O)CBr`: the toxicity in mice entry was “No obvious toxicity”.
